# In ChEMBL document CHEMBL4619775, “2-Arylbenzo[d]oxazole Phosphinate Esters as Second-Generation Modulators of Utrophin for the Treatment of Duchenne Muscular Dystrophy” (J Med Chem, 2020):
# Details: mouse, in vivo, iv, 1 mg/kg
compound,measurement,value
"CCP(=O)(OC)c1ccc2oc(-c3ccc(F)cc3)nc2c1 (single isomer, unassigned; (+))",Cmax,615 ng/mL
